AlphaSeq binding of Ab-91 heavy chain variants to a spike HR2 peptide

The target is the same throughout: PDVDLGDISGINAS, from the HR2 region of SARS-CoV-2 spike.

The variants keep the light chain, the linker and the frameworks of Ab-91 (scFv order VL, three GGGGS repeats, VH).
VL: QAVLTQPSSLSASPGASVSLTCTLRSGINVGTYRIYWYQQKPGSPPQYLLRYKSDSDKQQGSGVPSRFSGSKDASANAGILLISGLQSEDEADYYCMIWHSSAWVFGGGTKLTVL
VH: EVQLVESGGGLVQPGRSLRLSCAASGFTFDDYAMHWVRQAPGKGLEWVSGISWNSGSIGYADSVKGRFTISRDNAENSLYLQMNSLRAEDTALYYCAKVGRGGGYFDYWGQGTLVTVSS

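The library (AAYL51) carries one to three amino acid substitutions per variant, with no insertions or deletions. The assay is AlphaSeq: two haploid yeast populations carry antibody and antigen on their surface. Mating (16 h, 30 °C) was followed by selection of diploids and sequencing of their barcodes. Each replicate has its own calibration line, from reference interactions of the BCL2 family. Mating was done three times.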

Variants are written as CDR1, CDR2 and CDR3 of the heavy chain (limits as in the source). Parent: GFTFDDYAMH, GISWNSGSIGYADSVK, VGRGGGYFDY.
Values are log10 of the apparent Kd in nM; lower means stronger binding.
"ND" means that the variant was in the library but no mating with the target was seen in that replicate; the authors take this as a sign of poor binding, and no number exists.
Three control strains display no target. For library AAYL51, 21% of the pairings with them gave a signal, with a median of 4.54 and one signal in twenty below 3.26, so weak values seen in few replicates may be background. The control count says in how many pairings with the empty strains this scFv gave a signal.
Parent in this assay: reference entry 1.86, copy in this library 0.88.

Variant GFTFDDYAMH / GISWNIGSIVYADSVK / VGRGGTYFDY gave ND, ND, ND (controls 0 of 9).
Variant GFTFDDYAWH / GISWNSGSIGYADSVR / MGRGGGYFDY gave ND, ND, ND (controls 0 of 9).
Variant GFTFDDYAMH / GISWNSGSIGYADWVK / VGRHGGYFDY gave ND, ND, 3.25 (controls 0 of 9).
Variant GFTKDDYAMH / GISWNSGSIGYADSVK / VGRGGGLFEY gave 5.25, 5.05, 5.09 (controls 6 of 9).
Variant GFTFDVYAMY / GISWNSGSIGYADSVK / VGRGGGYMDY gave ND, ND, ND (controls 1 of 9).
Variant GFTFDDYAMH / GISWNSGSIGYADSVK / VGRGGGYFFY gave ND, ND, ND (controls 0 of 9).
Variant GFWFDDYAMA / GISWNSGSIQYADSVK / VGRGGGYFDY gave 3.62, ND, ND (controls 3 of 9).
Variant GFTFDDYAMH / GISWNSKSIGPADSVK / VGRGGGYFDY gave ND, ND, ND (controls 0 of 9).
Variant GFTFDDYTMH / GISWNSGSIGYADSVK / PGRGGGYFDY gave ND, ND, 3.85 (controls 3 of 9).
Variant GFTFDDYAMH / GISWNSGSIGYADSCI / NGRGGGYFDY gave 1.52, 1.74, 1.32 (controls 1 of 9).
Variant GFTLMDYAMH / GISWNSGSIGYADSVK / VIRGGGYFDY gave ND, 2.94, ND (controls 0 of 9).
Variant GFTFDDYAMH / GQSWNSGSIGKADSDK / VGRGGGYFDY gave ND, ND, ND (controls 2 of 9).
Variant GFTFDDYAMH / DISWNSGSIGYADSNK / VGRGGGYFTY gave ND, ND, ND (controls 2 of 9).
Variant GFTFDPYAMH / GISWNSGSIGYADSSK / VGVGGGYFDY gave ND, ND, ND (controls 0 of 9).
Variant GNTFDDYAMH / GIFWNSGSIGYASSVK / VGRGGGYFDY gave 5.39, 5.97, ND (controls 6 of 9).
Variant GFTFDDSAMH / GISWNSGTIGYADSVK / VGRGGGTFDY gave ND, ND, ND (controls 1 of 9).
Variant GFTFDDYAMH / GISWNSMSGGYADSVK / VERGGGYFDY gave 3.33, 3.61, 2.52 (controls 0 of 9).
Variant GFTFDDYAMH / GISLNSGIIGYADSVP / VGRGGGYFDY gave 4.27, ND, 4.03 (controls 3 of 9).
Variant GFTFDDYAMN / GISPNSGSIGYAESVK / VGRGGGYFDY gave 3.76, 4.72, 3.47 (controls 4 of 9).
Variant GPTFDDYAMH / GISWNSGSIGYADSVK / VGSGGGYFDY gave ND, 4.06, ND (controls 0 of 9).
Variant GFTFDDYAMH / GISWNSGSLYYADSVK / VVRGGGYFDY gave 6.60, ND, ND (controls 6 of 9).
Variant GFTFDDYAMH / GNSWNSGSIGYADSVK / VGWGGTYFDY gave 4.65, ND, ND (controls 0 of 9).
Variant GFTFDDYAMH / GISWNSGSIGYADSDK / FGRGGGYFDT gave ND, ND, ND (controls 1 of 9).
Variant GFTFDDYASH / GISWNSGHIGYADSVK / VGCGGGYFDY gave 3.50, ND, ND (controls 0 of 9).
Variant GFTFDDYAMH / GISWNRGSIGDADSVK / VGRGGGYFDY gave ND, 3.83, ND (controls 0 of 9).
Variant GFTFIDYAMH / GISWNSGSIGYADSVK / VGRPDGYFDY gave 2.06, 2.06, 1.39 (controls 1 of 9).
Variant GFTFDDYAMH / GISWNSGSIGYADSVK / VGLGFGYFDY gave 5.24, 5.91, ND (controls 6 of 9).
Variant GDTEDDYAMH / GISWNSGSIGYADSVK / VGRGGGYFDY gave 3.80, ND, 5.02 (controls 4 of 9).
Variant SFTFDDYAMH / GWSWNSGSIGYADSVK / VGRNGGYFDY gave 4.21, ND, ND (controls 3 of 9).
Variant GFTFSDYAMH / GISWNTGSIGYADSVK / VGRGGGYWDY gave ND, ND, ND (controls 1 of 9).
Variant GNTCDDYAMH / GISWNSGSIGYADSVM / VGRGGGYFDY gave 4.35, 5.67, ND (controls 4 of 9).
Variant GFTFDDYAMH / GISSNSGSIGYADSVK / VGSGGGYFDC gave 2.02, 2.10, 1.23 (controls 1 of 9).
Variant GFTFDDYAMH / GISWNSGFIGYADSVK / VGRGGGYFYY gave ND, ND, ND (controls 0 of 9).
Variant GFTFDDYAMS / GISWNSGSIGYADKVK / VGRGGGYFHY gave ND, ND, ND (controls 2 of 9).
Variant GFYFDDYAMH / GISWNSGSIGYAHSVK / VGRGGGYFDY gave ND, ND, ND (controls 0 of 9).
Variant PFTFDDYKMH / GISWNSGSIGYADSVK / VGRGGGYFDY gave ND, ND, ND (controls 0 of 9).
Variant SFTFDDYHMH / GISNNSGSIGYADSVK / VGRGGGYFDY gave 2.70, ND, ND (controls 1 of 9).
Variant GFTFDDYAMH / GISWNSGSIGYAGSVT / VTRGGGYFDY gave 4.60, 5.37, 5.25 (controls 9 of 9).
Variant GFTFDDYAMH / GISWNSGSIGYADSVK / VGRAMGYFDS gave 5.39, ND, ND (controls 1 of 9).
Variant GFTMDDYKMH / GISWNSGSIGYADSVK / VGRGGGYFDM gave 4.93, ND, ND (controls 3 of 9).
Variant GFTFDDYAMH / GISWNSGSIGYADSVK / VGLGPGAFDY gave ND, ND, ND (controls 2 of 9).
Variant GFTFDDYAMH / GWSWNSGSIGYADSVE / VGRGGNYFDY gave 3.04, 3.50, ND (controls 0 of 9).
Variant KFTFDIYAMH / GISWNSGSIEYADSVK / VGRGGGYFDY gave ND, ND, ND (controls 2 of 9).
Variant GFTFDDYAMH / GISWNSGSIHYADSVW / VGRCGGYFDY gave 4.87, ND, ND (controls 4 of 9).
Variant GFIEDDYAMH / SISWNSGSIGYADSVK / VGRGGGYFDY gave ND, 6.74, 4.88 (controls 4 of 9).

Repeated from above, the 6 best binders with a signal in all replicates:

{"CDR-H1": "GFTFDDYAMH", "CDR-H2": "GISWNSGSIGYADSCI", "CDR-H3": "NGRGGGYFDY", "log10 Kd (nM) by replicate": "1.52, 1.74, 1.32", "signal with controls": "1/9"}
{"CDR-H1": "GFTFDDYAMH", "CDR-H2": "GISSNSGSIGYADSVK", "CDR-H3": "VGSGGGYFDC", "log10 Kd (nM) by replicate": "2.02, 2.10, 1.23", "signal with controls": "1/9"}
{"CDR-H1": "GFTFIDYAMH", "CDR-H2": "GISWNSGSIGYADSVK", "CDR-H3": "VGRPDGYFDY", "log10 Kd (nM) by replicate": "2.06, 2.06, 1.39", "signal with controls": "1/9"}
{"CDR-H1": "GFTFDDYAMH", "CDR-H2": "GISWNSMSGGYADSVK", "CDR-H3": "VERGGGYFDY", "log10 Kd (nM) by replicate": "3.33, 3.61, 2.52", "signal with controls": "0/9"}
{"CDR-H1": "GFTFDDYAMN", "CDR-H2": "GISPNSGSIGYAESVK", "CDR-H3": "VGRGGGYFDY", "log10 Kd (nM) by replicate": "3.76, 4.72, 3.47", "signal with controls": "4/9"}
{"CDR-H1": "GFTFDDYAMH", "CDR-H2": "GISWNSGSIGYAGSVT", "CDR-H3": "VTRGGGYFDY", "log10 Kd (nM) by replicate": "4.60, 5.37, 5.25", "signal with controls": "9/9"}

From the AlphaSeq antibody data of Engelhart et al. 2022 (doi:10.1038/s41597-022-01779-4), copy in the FLAb collection.